Earlier results in patent US20250073359A1, “RADIOLABELED BIOMOLECULES AND THEIR USE” (DUKE UNIVERSITY, priority 2017, published 2025).

Tested on: HER2-expressing human breast carcinoma lines
Details: 3 HER2-expressing human breast carcinoma lines, in vitro

## ^211At-labeled trastuzumab: anti-HER2 monoclonal antibody trastuzumab labeled with the α-emitter ^211At
  relative biological effectiveness versus conventional external beam therapy: about 10 times
